Assay results taken from article PMC9140012, “Epigenetic-Like Stimulation of Receptor Expression in SSTR2 Transfected HEK293 Cells as a New Therapeutic Strategy” (Cancers, 2022).

Test system: SSTR2 in HEKsst2 cells
Assay: Intracellular Lu-177-DOTATATE uptake, HEKsst2
Assay type: cell-based, murine
Conditions: 1 h; 3.9 µM 5-aza-dC and 1.85 mM VPA; p < 0.05
Description: HEK293 cells were obtained from the German Resource Center for Biological Material (DSMZ, Braunschweig, Germany) and grown in Dulbecco’s modified Eagle´s medium supplemented with 10% fetal calf serum (FCS) in a humidified atmosphere containing 5% CO2. Cells were transfected with plasmid, encoding murine HA-tagged SSTR2 receptors using lipofectamine according to the manufacturing instructions (Thermofisher, Darmstadt, Germany). Stable transfectants were selected in the presence of 500 µg/mL G-418 and characterized using radioligand binding assays, Western blot analyses, surface ELISA assays and immunocytochemistry as described previously. Non-transfected HEK293 cells were maintained under equal conditions as HEKsst2 except for the addition of G-418. In the following, HEK293 cells and SSTR2 transfected HEK293 cells are termed as HEK and HEKsst2, respectively. […]
After incubation times, the supernatant of the well was removed and the cells were washed twice with PBS (phosphate buffered saline) at 4 °C. […] The activity of all fractions was measured using a Gamma-Counter (Cobra II, Autogamma, Packard®, Canberra Company, Ruesselsheim, Germany). The intracellular activity was expressed as a percentage of the total activity normalized to the cell count of 2.0 × 10^5. […]

“(DOTA)-[Tyr3, Thr8]-octreotide [Lu-177-DOTATATE, SSTR2-targeted radioligand, Lu-177 labelled (DOTA)-[Tyr3, Thr8]-octreotide]” was tested, and the “increase in Lu-177-DOTATATE uptake vs unstimulated” value was 2160%.
